We go through 1 molecule from patent US10538567B2, “Compounds as peptidic trigonal GLP1/glucagon/GIP receptor agonists” (priority 2016, dated 2020).

The chains behind the UniProt entries cited, without tags or fusion partners. Residues count along the entry.
UniProt P47871, 26-477: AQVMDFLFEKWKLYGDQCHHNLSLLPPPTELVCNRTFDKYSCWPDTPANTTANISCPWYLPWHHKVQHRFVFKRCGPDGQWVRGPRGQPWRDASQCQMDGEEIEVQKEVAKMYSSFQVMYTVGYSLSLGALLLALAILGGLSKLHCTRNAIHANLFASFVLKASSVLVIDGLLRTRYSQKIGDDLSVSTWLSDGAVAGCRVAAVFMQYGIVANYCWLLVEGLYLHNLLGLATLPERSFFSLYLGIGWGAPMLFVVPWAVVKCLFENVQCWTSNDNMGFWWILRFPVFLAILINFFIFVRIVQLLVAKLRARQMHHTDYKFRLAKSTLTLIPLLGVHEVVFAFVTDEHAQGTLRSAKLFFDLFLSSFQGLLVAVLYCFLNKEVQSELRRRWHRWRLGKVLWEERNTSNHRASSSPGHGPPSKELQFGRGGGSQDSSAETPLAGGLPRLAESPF

The target of this experiment is T1, human glucagon receptor (Homo sapiens, UniProt P47871).
T1 construct: expressed in transfected cells; host or cells: HEK-293
In words: cAMP response (HTRF) of HEK-293 cells stably expressing human glucagon receptor. Type of experiment: cell-based. The note with it: Table 9 comparison testing; read-out: EC50 hGlucagon-R. Here is the method: cAMP content of cells was determined using a kit from Cisbio Corp. (cat. no. 62AM4PEJ) based on HTRF (Homogenous Time Resolved Fluorescence). For preparation, cells were split into T175 culture flasks and grown overnight to near confluency in medium (DMEM/10% FBS). Medium was then removed and cells washed with PBS lacking calcium and magnesium, followed by proteinase treatment with accutase (Sigma-Aldrich cat. no. A6964). Detached cells were washed and resuspended in assay buffer (1×HBSS; 20 mM HEPES, 0.1% BSA, 2 mM IBMX) and cellular density determined. They were then diluted to 400000 cells/ml and 25 μl-aliquots dispensed into the wells of 96-well plates. For measurement, 25 μl of test compound in assay buffer was added to the wells, followed by incubation for 30 minutes at room temperature.
Potencies of peptidic compounds at the GLP-1, glucagon and GIP receptors were determined by exposing cells expressing human glucagon receptor (hGlucagon R), human GIP receptor (hGIP-R) or human GLP-1 receptor (hGLP-1 R) to the listed compounds at increasing concentrations and measuring the formed cAMP as described in Methods.
In general terms: TR-FRET usually uses a lanthanide donor and a delayed reading to cut background.

For the molecule `CCCCCCCCCCCCCCCCCC(=O)N[C@@H](CCC(=O)NCCCC[C@H](NC(=O)[C@H](CCC(N)=O)NC(=O)[C@H](CCCCN)NC(=O)[C@H](CO)NC(=O)[C@H](CC(C)C)NC(=O)[C@H](CC(=O)O)NC(=O)[C@H](CO)NC(=O)[C@@H](NC(=O)[C@H](Cc1ccccc1)NC(=O)[C@@H](NC(=O)CNC(=O)[C@H](CCC(N)=O)NC(=O)C(C)(C)NC(=O)[C@@H](N)Cc1c[nH]cn1)[C@@H](C)O)[C@@H](C)O)C(=O)N[C@@H](CC(=O)O)C(=O)N[C@@H](CCC(=O)O)C(=O)N[C@@H](CCC(N)=O)C(=O)N[C@@H](CCCNC(=N)N)C(=O)N[C@@H](C)C(=O)N[C@@H](CCCCN)C(=O)N[C@@H](CCC(=O)O)C(=O)N[C@@H](Cc1ccccc1)C(=O)N[C@H](C(=O)N[C@@H](CCC(=O)O)C(=O)N[C@@H](Cc1c[nH]c2ccccc12)C(=O)N[C@@H](CC(C)C)C(=O)N[C@@H](CCCCN)C(=O)N[C@@H](C)C(=O)NCC(=O)NCC(=O)N1CCC[C@H]1C(=O)N[C@@H](CO)C(=O)N[C@@H](CO)C(=O)NCC(=O)N[C@@H](C)C(=O)N1CCC[C@H]1C(=O)N1CCC[C@H]1C(=O)N1CCC[C@H]1C(=O)N[C@@H](CO)C(N)=O)[C@@H](C)CC)C(=O)O` [SEQ ID NO: 28, H-Aib-Q-G-T-F-T-S-D-L-S-K-Q-K[gGlu-Stea]-DEQRAKEFIEWLKAGGPSSGAPPPS-NH2, reference compound], the EC50 (as a rule, the concentration at which the effect is half-maximal) turned out to be 1.9 pM.
